Assay results published in article PMC9610285, “Polymorphism of Drug Transporters, Rather Than Metabolizing Enzymes, Conditions the Pharmacokinetics of Rasagiline” (Pharmaceutics, 2022).

Conditions: SLC22A1*5 (rs34059508) *1/*5, n=5; 1 mg single oral dose, fasting
Description: The data used in this work were obtained from four bioequivalence clinical trials conducted at the Clinical Trials Unit of the Hospital Universitario de La Princesa (UECHUP) (EUDRA-CT IDs: 2012-004433-17, 2013-002159-14, 2014-001123-77 and 2021-000315-23). […] The reference formulation (R) in all cases was Azilect® 1 mg tablets (TEVA Pharmaceuticals Europe B.V.), which was compared against different test formulations (T), all of them 1 mg tablets, except in clinical trial 3, whose test formulation was orodispersible 1 mg. The four bioequivalence trials had two periods and two sequences (TR and RT). […]
In each period, the drug was administered under fasting conditions, which were maintained until 5 h after drug administration. […] The latter was validated according to European regulations for bioequivalence assessment, with a lower limit of quantification (LLOQ) of 10 pg/mL and a calibration range of 10–10,000 pg/mL.
Pharmacokinetic parameters were calculated with WinNonlin Professional (Scientific Consulting, Inc., Cary, NC, USA) following a non-compartmental model. […] The extrapolation to infinity (AUC0-∞) was determined by the sum of two partial AUCs: AUCt-∞ calculated by the ratio Ct/k, where Ct is the last detectable concentration and k the elimination slope; plus AUC0-t. Cmax and tmax were directly obtained from the plasma time-concentration curves. t1/2 was calculated as Ln2/k. […]

With `C#CCN[C@@H]1CCc2ccccc21` [rasagiline, Rasagiline] as the compound, how does the Vd/F read?
Its Vd/F is 15.36 ± 4.85 L/kg.
